The assay concerns the target T1, natural hLAG-3 (70 kDa) protein present in whole cell lysate of PHA-activated human PBMCs (human, UniProt P18627 23-525).
T1 construct: Endogenous protein in a 1% NP-40 whole cell lysate; also called LAG-3 protein from the T-cell lysate
T1 sequence (looked up): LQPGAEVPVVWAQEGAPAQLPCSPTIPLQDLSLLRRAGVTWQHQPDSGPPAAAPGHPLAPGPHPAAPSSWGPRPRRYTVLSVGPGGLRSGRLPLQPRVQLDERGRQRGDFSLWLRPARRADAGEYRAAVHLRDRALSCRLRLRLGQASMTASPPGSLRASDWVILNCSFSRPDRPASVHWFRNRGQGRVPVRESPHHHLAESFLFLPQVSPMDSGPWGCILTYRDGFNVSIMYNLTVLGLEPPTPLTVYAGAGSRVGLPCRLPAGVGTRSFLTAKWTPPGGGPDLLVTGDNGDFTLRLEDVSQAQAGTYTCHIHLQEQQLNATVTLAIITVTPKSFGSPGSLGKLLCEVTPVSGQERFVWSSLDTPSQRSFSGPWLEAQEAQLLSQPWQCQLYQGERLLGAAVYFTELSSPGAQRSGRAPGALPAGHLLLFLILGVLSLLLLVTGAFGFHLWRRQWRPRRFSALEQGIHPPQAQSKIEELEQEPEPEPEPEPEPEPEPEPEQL
Put plainly: GST pull-down from lysate of PHA-activated T lymphocytes, Western blot. How it is done: Bound proteins were incubated with total cell lysates prepared from PHA-activated T lymphocytes. […] Therefore, LAG-3 binds specifically to the LAP protein in vitro, in agreement with the data obtained from the yeast two-hybrid screening procedure.
The hLAG-3 protein was synthesized in vitro using the T7-coupled rabbit reticulocyte lysate system (TNT, Promega, Madison, Wis.). Equal amounts of GST-LAP or control GST proteins immobilized on beads were incubated for 3 hrs at 4° C. with direct whole cell lysates (after centrifugation of nuclei) or with the in vitro translated hLAG-3 protein in a binding buffer (20 mM Tris-HCl pH 7.5, 50 mM NaCl, 1 mM PMSF, 1 μg/ml leupeptin, 1 μg/ml aprotinin). Bound proteins were then extensively washed in PBS buffer and analyzed by Western blotting.

B1: GST alone (control glutathione S-transferase on glutathione-Sepharose beads) (other, UniProt P08515 1-218, looked up)
chain: MSPILGYWKIKGLVQPTRLLLEYLEEKYEEHLYERDEGDKWRNKKFELGLEFPNLPYYIDGDVKLTQSMAIIRYIADKHNMLGGCPKERAEISMLEGAVLDIRYGVSRIAYSKDFETLKVDFLSKLPEMLKMFEDRLCHKTYLNGDHVTHPDFMLYDALDVVLYMDPMCLDAFPKLVCFKKRIEAIPQIDKYLKSSKYIAWPLQGWQATFGGGDHPPK
notes: Control for GST-LAP; also called control GST beads
For the molecule B1, the binding result is reported as “no binding”.

For the origin of these results see patent publication US20040171551A1 (INSTITUT GUSTAVE ROUSSY IGR A CORPORATION OF FRANCE, published 2004).
